{"sequences": {"note": "Protein sequences, listed by entry. Tags and fused reporters are not part of them.", "UniProt P08913, whole entry": "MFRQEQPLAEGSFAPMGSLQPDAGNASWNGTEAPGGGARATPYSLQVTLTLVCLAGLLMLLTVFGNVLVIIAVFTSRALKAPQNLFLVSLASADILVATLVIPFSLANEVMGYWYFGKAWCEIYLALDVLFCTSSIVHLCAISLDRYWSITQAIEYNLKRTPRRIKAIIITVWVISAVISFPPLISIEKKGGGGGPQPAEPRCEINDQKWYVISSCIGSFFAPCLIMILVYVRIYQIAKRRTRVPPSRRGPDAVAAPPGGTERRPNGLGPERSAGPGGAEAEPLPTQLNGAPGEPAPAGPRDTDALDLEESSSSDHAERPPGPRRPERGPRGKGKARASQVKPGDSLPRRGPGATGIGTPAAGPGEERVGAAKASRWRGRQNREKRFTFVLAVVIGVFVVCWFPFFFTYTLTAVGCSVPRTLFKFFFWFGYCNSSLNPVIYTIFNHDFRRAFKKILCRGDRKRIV", "UniProt P18825, whole entry": "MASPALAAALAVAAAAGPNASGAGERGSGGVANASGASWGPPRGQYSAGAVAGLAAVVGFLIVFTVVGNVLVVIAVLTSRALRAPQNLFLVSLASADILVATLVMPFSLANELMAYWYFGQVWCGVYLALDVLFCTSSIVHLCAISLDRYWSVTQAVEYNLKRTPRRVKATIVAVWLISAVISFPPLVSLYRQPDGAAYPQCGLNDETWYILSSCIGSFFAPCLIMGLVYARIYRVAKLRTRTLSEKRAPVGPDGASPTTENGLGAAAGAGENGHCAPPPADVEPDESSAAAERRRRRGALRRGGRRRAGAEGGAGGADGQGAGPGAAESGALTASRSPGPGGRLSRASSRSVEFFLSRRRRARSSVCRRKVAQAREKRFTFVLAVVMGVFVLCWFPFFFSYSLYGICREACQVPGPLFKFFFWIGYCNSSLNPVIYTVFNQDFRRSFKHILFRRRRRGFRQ"}, "source": "paper PMC6143434", "about": "(Molecular neurobiology, 2018)", "format_in_all_cases": "cell-based", "key": {"α2A adrenoceptor [1]": {"target": "T1, α2A adrenoceptor (Homo sapiens, UniProt P08913)", "assay": "G protein activation BRET assay in transfected HEK-293T cells"}, "α2A adrenoceptor [2]": {"target": "T1, α2A adrenoceptor", "assay": "ERK1/2 phosphorylation in CHO cells transfected with α2A-RLuc8 receptor"}, "α2C adrenoceptor": {"target": "α2C adrenoceptor (Homo sapiens, UniProt P18825)", "assay": "G protein activation BRET assay in transfected HEK-293T cells"}, "α2A adrenoceptor [3]": {"target": "T1, α2A adrenoceptor", "assay": "DMR label-free assay in CHO cells transfected with α2A-RLuc8 receptor"}, "[4]": {"settings": "Potency (EC50) G protein activation"}}, "note": "Several values for one entry are separate records, joined by “and”; a condition that tells them apart may be missing. Identical values can stand only once. Counter-ions that a name gives are not always drawn. Like-named read-outs stand apart in the source and are kept apart here."}
{"smiles": "CCCN1CCC[C@@H]2Cc3n[nH]cc3C[C@H]21", "note": "[Quinpirole, (-) quinpirole hydrochloride]", "values": [{"measurement": "Efficacy (Emax) G protein activation", "setting": "α2A adrenoceptor [1]", "result": "78 ± 9 percentage of NE values and 72 ± 8 percentage of NE values and 70 ± 2 percentage of NE values and 47 ± 8 percentage of NE values and 40 ± 9 percentage of NE values"}, {"measurement": "EC50", "setting": "α2A adrenoceptor [1]; [4]", "result": "1.3 µM and 820 nM and 700 nM (2×) and 1 µM"}, {"measurement": "MAPK activation (ERK1/2 phosphorylation)", "setting": "α2A adrenoceptor [2]", "result": "able to produce MAPK activation"}, {"measurement": "EC50", "setting": "α2C adrenoceptor", "result": 100, "unit": "nM"}, {"measurement": "EC50", "setting": "α2C adrenoceptor; [4]", "result": "400 nM and 200 nM"}, {"measurement": "EC50", "setting": "α2C adrenoceptor; read-out: Potency (EC50) G protein activation", "result": "230 ± 50", "unit": "nM"}, {"measurement": "DMR response", "setting": "α2A adrenoceptor [3]", "result": "significant response"}]}
